Literature values in PMC5060010 (ACS chemical biology, 2013).

Chains of the proteins cited; added tags and fusions are not shown.
UniProt P35372, whole entry: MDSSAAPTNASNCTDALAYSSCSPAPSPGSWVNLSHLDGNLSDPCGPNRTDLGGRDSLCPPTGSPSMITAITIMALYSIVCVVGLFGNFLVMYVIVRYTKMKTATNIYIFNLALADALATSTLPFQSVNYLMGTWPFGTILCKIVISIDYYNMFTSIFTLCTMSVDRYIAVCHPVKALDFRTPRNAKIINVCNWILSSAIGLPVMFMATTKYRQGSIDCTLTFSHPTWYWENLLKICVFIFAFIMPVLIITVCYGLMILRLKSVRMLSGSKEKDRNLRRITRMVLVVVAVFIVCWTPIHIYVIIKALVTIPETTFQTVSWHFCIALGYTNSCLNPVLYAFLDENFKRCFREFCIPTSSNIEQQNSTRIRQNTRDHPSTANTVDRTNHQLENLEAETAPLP
UniProt P41143, whole entry: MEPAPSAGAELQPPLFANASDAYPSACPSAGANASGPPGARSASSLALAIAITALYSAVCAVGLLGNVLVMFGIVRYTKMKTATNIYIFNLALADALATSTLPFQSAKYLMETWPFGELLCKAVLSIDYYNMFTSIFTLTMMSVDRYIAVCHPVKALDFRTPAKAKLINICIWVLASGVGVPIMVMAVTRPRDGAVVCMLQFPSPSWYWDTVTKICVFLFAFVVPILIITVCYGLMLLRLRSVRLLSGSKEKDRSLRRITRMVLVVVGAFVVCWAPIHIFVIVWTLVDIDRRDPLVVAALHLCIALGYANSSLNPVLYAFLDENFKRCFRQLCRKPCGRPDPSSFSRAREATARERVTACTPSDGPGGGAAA

Target: mu-delta heteromer (Homo sapiens, UniProt P35372+P41143)
Conditions: cited from earlier work

DAMGO
co-internalization of mu-delta heteromer: co-internalize mu-delta heteromer
